The values below come from patent US4605654A, “2-(arylalkyloxymethyl)morpholines and the central nervous system compositions” (P. F. Medicament, priority 1984, dated 1986).

The nature of this data set: Solubility in water. The settings on record: soluble to x% in water; salt as prepared.

“2-[(3-Phenylpropyloxy)methyl]morpholine hydrogen oxalate [Example 16]”: the Solubility in water is 10%.
